According to patent publication US6540999B1, “Immunomodulatory methods using Lewisx oligosacchardies” (President and Fellows of Harvard College, priority 1996, dated 2003):

System: Human PBMC from B Lymphoma Patients
Settings: 24 hours; LPS 20 μg/ml, HSA and conjugates 100 μg/ml

How did the “IL-10, B-LYMPHOMA-1” value turn out when lipopolysaccharide [LPS] was run?
The value was 6053 µg/mL.

And the “IL-10, B-LYMPHOMA-2” value?
The value was 201 µg/mL.

What about the “IL-10, B-LYMPHOMA-3” value of the same substance?
The value was 1049 µg/mL.
